PGC1a acetyl inh = lowers PGC1a acetylation signal in U2OS cells | inhibition, % at 15.6 µM | 350,000 tested, 0.17% active | AlphaScreen anti-acetyl-lysine; with virally co-expressed GCN5 acetyltransferase;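 active means every replicate shows inhibition of at least 40%; inconclusive means mean inhibition at least 40% but some replicate below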;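 further: 0% = neutral control wells and 100% = positive control wells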
esBAF inh = blocks esBAF chromatin remodeling in mouse ES cells; 350,000 tested, 2% active; reporter increase, % at 12.5 µM; Bmi1-luciferase knock-in reporter, 24 h; 100% = twice the neutral-well signal; in the data active means activation above about 40%; inconclusive means no clear call, values can overlap the other calls;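 further: 0% = median of the plate's neutral control wells and 100% = double that signal; a rise in the Bmi1 reporter signal indicates esBAF inhibition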
PglD DTNB = inhibitors of Campylobacter jejuni PglD acetyltransferase. inhibition, % at 12.5 µM. purified PglD enzyme, DTNB colorimetric CoA detection. 360,000 tested, 0.098% active; in the data active means inhibition above about 16%, passing the limit was not always enough; inconclusive means no clear call, values can overlap the other calls
Statin myotox sup = suppression of simvastatin myotoxicity; C2C12 myotubes + simvastatin, ATP luminescence, 48 h; scaled: DMSO 0, geranylgeraniol control 100; rescue of ATP level, % at 7.49 µM; 330,000 tested, 0.78% active; AID 602340;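 active means mean ATP rescue above about 67%, or every replicate alone reaching that limit, limit read from the data, passing the limit was not always enough; inconclusive means no clear call, values can overlap the other calls; inactive means mean under the limit and some replicate under it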;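 further: myotubes were challenged with 10 µM simvastatin during compound exposure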
UUG fidelity = yeast start codon fidelity modulation; AID 602363; activity score, % at 18.7 µM; S. cerevisiae UUG-firefly luciferase reporter, luminescence/redox ratio; 0.13% of 350,000 active;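 active means replicate mean at a twofold rise or more, about +100% in these data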;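 further: firefly luciferase made from a UUG start codon reports start codon fidelity; reporter light over untreated wells divided by growth signal over untreated wells; some hits fall short of that in this replicate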
E-sel inducer = E-selectin induction on HUVECs; HUVEC E-selectin immunofluorescence imaging; normalized: neutral wells 0, TNF-alpha wells 100; P16581; 260,000 tested, 0.37% active; activation, % at 7.58 µM;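 active means mean E-selectin-positive cell signal at least 10% of the positive control, reached in at least 60% of replicates, without over 20% cell loss; inconclusive means no rule given, readout overlaps actives, possibly toxicity-flagged; inactive means the rest, including those meeting only one limit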
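Test system – human umbilical vein endothelial cells (HUVEC), E-selectin induction · Input – 3,000 HUVEC seeded per well · Buffer or medium – EGM-2, gelatin · Compound dosing – single-point compound dose · Detection – immunofluorescence imaging · Measure – percent E-selectin-positive cells · Controls – TNF-alpha high, DMSO low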
Starred values were filed as active, the others as inactive; ? = inconclusive; · = no result. Sampled rows, rich in hits. Any-hit rate of the full collection: about 2.8%.

Preview, three compounds:
SMILES	PGC1a acetyl inh	esBAF inh	PglD DTNB	Statin myotox sup	UUG fidelity	E-sel inducer
CC(C)c1oc(=O)cc2c1[C@@H](O)[C@H]1OC(=O)[C@@]3(C)C[C@@H](O)[C@@H](O)[C@@]2(C)C13 (stereo partly specified)	·	-3.7	2.7	95.9*	17.2	-0.2
CSCCC(c1nnnn1Cc1ccccc1)N1CCC(n2c(=O)[nH]c3ccccc32)CC1 (stereo unspecified)	7.4	-17.4	1.6	1.0	-7.0	0.0
O=c1[nH]c2ccccc2n1C1CCN(C(CCc2ccccc2)c2nnnn2Cc2ccccc2)CC1 (stereo unspecified)	103.5*	-9.0	4.7	-0.9	-13.6	0.9

Results, from the first entry:
SMILES	PGC1a acetyl inh	esBAF inh	PglD DTNB	Statin myotox sup	UUG fidelity	E-sel inducer
CC(C)c1oc(=O)cc2c1[C@@H](O)[C@H]1OC(=O)[C@@]3(C)C[C@@H](O)[C@@H](O)[C@@]2(C)C13 (stereo partly specified)	·	-3.7	2.7	95.9*	17.2	-0.2
CSCCC(c1nnnn1Cc1ccccc1)N1CCC(n2c(=O)[nH]c3ccccc32)CC1 (stereo unspecified)	7.4	-17.4	1.6	1.0	-7.0	0.0
O=c1[nH]c2ccccc2n1C1CCN(C(CCc2ccccc2)c2nnnn2Cc2ccccc2)CC1 (stereo unspecified)	103.5*	-9.0	4.7	-0.9	-13.6	0.9
C[C@@H]1CN([C@H](C)CO)C(=O)CCCn2cc(nn2)CO[C@@H]1CN(C)C(=O)Oc1ccc2ccccc2c1	-3.2	2.2	·	14.7	·	0.8
CCc1ccc(-c2nn(Cc3ccccc3)cc2C=O)cc1	-13.3	67.0*	-10.1	-5.9	-8.3	1.0
O=C(OCc1ccccc1)N1CCC2CC1c1cc(N3Cc4ccccc4-n4nncc4C3)ccc12 (stereo unspecified)	-22.0	76.7*	-1.1	3.3	-21.4	0.1
CCOC(=O)[C@@H]1[C@@H]2NC(=S)N(C)[C@@]1(COCc1ccc(OC)cc1)Oc1ccccc12	-0.2	·	1.8	·	11.8	·
COC(=O)[C@@H]1[C@@H](CO)[C@@H]2Cn3c(ccc(/C=C/c4ccccc4)c3=O)[C@H]1N2C(=O)C1CC1	·	-3.5	-2.7	-5.0	·	-0.3
CC=CC(C)=CC(C)C(=O)CC(O)CC1CC(=O)NC(=O)C1 (stereo unspecified)	·	·	·	·	·	-0.2
CC1CC(C)(O)CC(C(O)CC2CC(=O)NC(=O)C2)C1=O (stereo unspecified)	76.9*	·	·	·	·	2.1
O=P(Nc1ccccc1)(Nc1ccccc1)Oc1cccc(Cl)c1	-2.4	-7.1	7.1	97.4*	4.1	·
O=C(Cc1cccnc1)N1CCCCN2[C@H](C1)[C@@H](c1ccc(C#CC3(O)CCCC3)cc1)[C@@H]2CO	7.9	0.8	1.2	-0.7	23.0	-0.5
COC(=O)[C@H]1[C@H](CO)[C@H]2Cn3c(ccc(-c4ccccc4F)c3=O)[C@@H]1N2	·	1.1	-2.4	-29.8	·	-0.3
O=C(C1CC(c2ccc(Cl)c(Cl)c2)=NO1)N1CCC2(CC1)OCCO2 (stereo unspecified)	1.6	80.4*	-1.4	2.0	6.2	·
O=C(Cc1ccccn1)N1CC2(C1)[C@H](c1ccccc1)[C@@H](CO)N2Cc1ccccn1	-0.4	·	·	·	·	0.2
CN1CCC(N(C)c2ncnc3ccc(Br)cc23)CC1	17.2	-2.5	-10.2	82.9*	-29.9	·
CC(C)NC(=O)N1[C@@H]2c3ccc(-c4cccc(C(=O)N(C)C)c4)c(=O)n3C[C@H]1[C@H](CO)[C@H]2C(=O)O	·	-2.4	-1.6	-8.5	·	-0.1
CC(Cc1ccccc1)/[N+]([O-])=C\c1ccc(C(F)(F)F)cc1 (stereo unspecified)	·	75.9*	-4.0	3.1	-1.3	·
C[C@H]1CCC[C@@H](O)CCC/C=C/c2cc(O)cc(O)c2C(=O)O1	·	4.5	5.2	?	-8.2	·
C[C@H]1CCC/C=C/C2C[C@H](O)CC2[C@H](O)/C=C/C(=O)O1 (stereo partly specified)	72.2*	-59.5	3.5	-108.6	-40.3	·
C[C@H]1CCC[C@H](O)CCCCCc2cc(O)cc(O)c2C(=O)O1	24.6	18.1	2.9	4.2	-19.5	2.5
CC1CCC/C=C/C2CC(O)CC2C(O)/C=C/C(=O)O1 (stereo unspecified)	72.6*	-65.1	3.2	-197.7	-12.1	·
O=C1C2CCCN2C(c2cccnc2)N1c1nccs1 (stereo unspecified)	-1.7	-2.5	-1.1	154.9*	-16.3	·
Cc1ccc(C[n+]2c(-c3ccc(C)cc3)cc(-c3ccc(C)cc3)cc2-c2ccc(C)cc2)cc1	67.2*	-81.4	2.8	-165.3	-12.3	·
Cc1ccc(-c2cc(-c3ccc(C)cc3)[n+](-c3ccc(C(=O)O)cc3)c(-c3ccc(C)cc3)c2)cc1	-3.3	1.7	-1.9	-1.0	10.7	0.3
COC(=O)[C@H]1[C@H](CO)[C@H]2Cn3c(ccc(-c4ccccc4F)c3=O)[C@@H]1N2Cc1ccncc1	-3.7	12.3	2.2	-7.7	·	-0.2
